Rows were chosen to be rich in hits. Some 2.4% of all compounds tested hit in one or more screens of this group.
Rango complex inh – qHTS Assay for Inhibitors of Rango (Ran-regulated importin-beta cargo) - Importin beta complex formation. Importin subunit beta-1 (Homo sapiens), Q14974. Rango CFP/YFP FRET sensor + importin beta, 45 min. Potency, µM (titrated, usually from 92.2 µM). hit rate 0.031% among 340,000. AID 540263, 2011; calls by dose curve; note: nearly all actives have a fitted effect of over 15% in size
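FRET biosensor (snurportin 1 IBB flanked by EYFP and cerulean), 50 nM, with compound 5 min, then 0.125 microM importin beta in PBS, 1 mM DTT, 0.02% Tween-20, 0.1% BSA. CFP/YFP ratio read after 45 min at room temperature; pre-read flags interference.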
ELG1 repair inh – qHTS screen for small molecules that inhibit ELG1-dependent DNA repair in human embryonic kidney (HEK293T) cells expressing luciferase-tagged ELG1; hit rate 2.3% among 330,000; HEK293T ELG1-luciferase reporter, luminescence, 16 h; DNA damage induced by 5-fluorouridine; Potency, µM (series often up to 46.1 µM), most hits filed as inhibitors; note: nearly all actives have a fitted effect of over 55% in size
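DMSO vehicle served as the neutral condition. Each well held 2,000 cells given 5-fluorouridine plus compound; after 16 hr at 37 °C/5% CO2, ONE-Glo was added and luciferase measured 30 min later.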
Rango release inh – qHTS Assay for Inhibitors of RanGTP induced Rango (Ran-regulated importin-beta cargo) - Importin beta complex dissociation | Biochemical FRET Rango-importin beta, RanGTP-induced dissociation | Potency, µM (series often up to 46.1 µM) | hit rate 0.071% among 340,000 | AID 540253, 2011; calls by dose curve; note: nearly all actives have a fitted effect of over 45% in size
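Two FRET readings bracket the reaction: one 5 min after compound meets Rango–importin beta, another 45 min after RanGTP-RCC1 (0.6 uM Ran, 0.2 uM RCC1, 2 mM GTP) is added. Only the second defines inhibition.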
PKM2 act – qHTS Assay for Activators of Human Muscle isoform 2 Pyruvate Kinase | Potency, µM (highest dose often 57.5 µM), usual class: activators | purified PKM2, Kinase-Glo ATP luminescence, activation; response scale: 0% is enzyme alone, no compound | hit rate 0.34% among 260,000; note: nearly all actives have a fitted effect of over 55% in size
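Purified hPK-M2 (>95% pure) converted ADP (0.1 mM final) to ATP with 0.5 mM PEP in 50 mM imidazole pH7.2, KCl, MgCl2, Tween 20, BSA; 1 h at room temperature. ATP detected by Kinase-Glo luminescence.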
Tb PFK inh – qHTS Assay to Find Inhibitors of T. brucei phosphofructokinase. ATP-dependent 6-phosphofructokinase (Trypanosoma brucei brucei), O15648. T. brucei PFK, ADP-Glo luminescence. Potency, µM (titrated, usually from 57.5 µM), most hits filed as inhibitors. hit rate 0.17% among 330,000; note: nearly all actives have a fitted effect of over 60% in size
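Compounds were pin-transferred as a titration series up to 57 uM into substrate buffer (0.5 mM F6P, 0.1 mM ATP, pH 8.0), then 1.25 nM PFK was added and reactions ran 45 min before ADP-Glo detection.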
PGK inhibitor – qHTS Assay to Find Inhibitors of Phosphoglycerate Kinase; PGK/GAPDH coupled, Kinase-Glo luminescence, 60 min; Potency, µM (highest dose often 57.5 µM), actives largely listed as inhibitors; AID 602233, 2012; hit rate 0.043% among 380,000; note: nearly all actives have a fitted effect of over 60% in size
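Recombinant glycosomal PGK reaction used 1,3-bisphosphoglycerate generated in-well by GAPDH (100nM final) in 100mM TEA pH 7.6, 5mM MgCl2, 0.01% Tween-20. After 60 minutes at room temperature, ATP was read by Kinase-Glo Plus luminescence end-point.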
Large screens that a line does not name were inactive. Unless noted, calls come from the whole dose curve; as a rule, active = well fitted curve in the direction sought with a large enough effect; inconclusive = small, poorly fitted or top-dose-only effect, or another doubt; inactive = no such curve, though single readings can be large; an effect the other way counts as inactive or inconclusive.

Protein sequences, listed by entry. Tags and fused reporters are not part of them.
Importin subunit beta-1 (Homo sapiens), Q14974, UniProt Q14974, whole entry, looked up: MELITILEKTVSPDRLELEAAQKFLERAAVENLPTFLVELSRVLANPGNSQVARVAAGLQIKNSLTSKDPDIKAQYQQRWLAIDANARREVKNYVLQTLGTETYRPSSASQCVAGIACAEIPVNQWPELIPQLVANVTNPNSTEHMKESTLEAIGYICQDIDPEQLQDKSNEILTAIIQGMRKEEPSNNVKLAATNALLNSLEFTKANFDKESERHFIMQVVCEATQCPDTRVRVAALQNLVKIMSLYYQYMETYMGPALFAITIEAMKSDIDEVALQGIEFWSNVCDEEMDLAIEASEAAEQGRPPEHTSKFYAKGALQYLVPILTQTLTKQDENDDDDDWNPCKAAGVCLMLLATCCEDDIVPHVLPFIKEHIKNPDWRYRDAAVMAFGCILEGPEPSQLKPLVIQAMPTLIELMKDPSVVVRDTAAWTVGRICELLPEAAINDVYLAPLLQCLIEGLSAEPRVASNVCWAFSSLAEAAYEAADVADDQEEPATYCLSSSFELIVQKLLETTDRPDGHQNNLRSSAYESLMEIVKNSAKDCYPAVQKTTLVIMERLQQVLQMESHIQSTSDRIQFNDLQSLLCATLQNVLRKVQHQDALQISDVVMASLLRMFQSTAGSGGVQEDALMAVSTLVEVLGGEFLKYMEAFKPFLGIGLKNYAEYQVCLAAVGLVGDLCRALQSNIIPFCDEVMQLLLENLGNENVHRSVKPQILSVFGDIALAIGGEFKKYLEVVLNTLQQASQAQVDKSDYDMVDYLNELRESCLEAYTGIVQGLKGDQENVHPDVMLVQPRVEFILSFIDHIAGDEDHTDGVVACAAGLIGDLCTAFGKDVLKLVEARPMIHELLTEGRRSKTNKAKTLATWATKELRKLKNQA

Cc1cc(SCC#N)n2nc(C)c(-c3ccccc3)c2n1	ELG1 repair inh 23µM
Cc1nn(-c2ccccc2)c(C)c1/C=N/NC(=O)c1cc(-c2cccc3ccccc23)n[nH]1	ELG1 repair inh 16µM
Cc1[nH]c2ccccc2c1/C=N/NC(=O)c1cc(-c2ccccc2)n[nH]1	ELG1 repair inh 21µM
COc1ccc2c(Cl)c(C(=O)N/N=C/c3c(C)[nH]c4ccccc34)sc2c1	Rango complex inh inconclusive, ELG1 repair inh 23µM, Rango release inh inconclusive
Cc1nn(-c2ccccc2)c(C)c1/C=N/NC(=O)c1cc(-c2ccccc2)n[nH]1	ELG1 repair inh inconclusive
CC(=O)Nc1ccc(C(=O)Nc2ccc3c(c2)N(C2CCCC2)C(=O)c2ccccc2S3)cc1	none (no result: Rango complex inh, ELG1 repair inh, Rango release inh, PKM2 act, Tb PFK inh)
COc1ccc(C)cc1NC(=O)CN1C(=O)COc2ccc(S(=O)(=O)N3CCCCC3)cc21	none (no result: PKM2 act)
CCOc1cc(C=C(C(=O)OC)C(=O)OC)ccc1OCc1ccc([N+](=O)[O-])cc1	ELG1 repair inh 21µM
S=C(Nc1ccc(Nc2ccccc2)cc1)N1CCN(c2ncccn2)CC1	none
Cc1nc2nc(NC(=O)C(C)C)[nH]n2c(=O)c1Cc1ccccc1	none (no result: Rango complex inh, ELG1 repair inh, Rango release inh, PKM2 act, Tb PFK inh)
CCOc1cccc(/C=N/NC(=O)c2cc(C3CC3)[nH]n2)c1O	ELG1 repair inh 2.6µM
CCOc1cccc(/C=N/NC(=O)c2cccnc2)c1O	ELG1 repair inh inconclusive
Cc1ccc(Cc2nnc3n(-c4ccccc4)nc(C(=O)c4ccccc4)n3c2=O)cc1	Rango complex inh inconclusive, ELG1 repair inh 21µM
CCOCc1c(C(=O)NC2=Nc3ccccc3NC(CC)=C2C(=O)OCC)oc2ccccc12	ELG1 repair inh 8.2µM
CCc1ccc(NCc2cc3ccc(OC)cc3n(CC(=O)Nc3cccc(Cl)c3C)c2=O)cc1	none (no result: Rango complex inh, ELG1 repair inh, Rango release inh, PKM2 act, Tb PFK inh)
c1ccc(CNc2ncnc3scc(-c4cccs4)c23)nc1	ELG1 repair inh 8.2µM, PKM2 act inconclusive
c1ccc(CNc2ncnc3sc4c(c23)CCC4)nc1	ELG1 repair inh inconclusive
c1ccc(-c2csc3ncnc(NCc4ccccn4)c23)cc1	ELG1 repair inh 12µM
CCOC(=O)N/N=C(\CCC(=O)O)c1cccs1	ELG1 repair inh inconclusive
CCOc1ccc(S(=O)(=O)N2CCC(C(=O)Nc3ccccc3N3CCCC3)CC2)cc1	none (no result: Rango complex inh, ELG1 repair inh, Rango release inh, PKM2 act, Tb PFK inh)
Cc1[nH]n(-c2ccccc2)c(=O)c1/C=N/NC(=O)C(C)C	none
Cc1ccc(S(=O)(=O)Nc2ccc(-c3ccc(N4CCCCCC4)nn3)cc2)cc1C	none (no result: Rango complex inh, ELG1 repair inh, Rango release inh, PKM2 act, Tb PFK inh)
CCOC(=O)c1c(C)oc2cc(Br)c(OC(=O)N3CCOCC3)cc12	ELG1 repair inh 23µM
CCN(CC)c1ccc(NC(=O)C2COc3ccc(OC)cc3C2)c(C)c1 (stereo not given)	none (no result: Rango complex inh, ELG1 repair inh, Rango release inh, PKM2 act, Tb PFK inh)
COc1ccc(Cl)cc1NC(=O)CSc1nc2[nH]ncc2c(=O)[nH]1	none (no result: Rango complex inh, ELG1 repair inh, Rango release inh, PKM2 act, Tb PFK inh)
COc1ccc(C(=O)NCC23C=CC(O2)C2C(=O)N(Cc4ccccc4)C(=O)C23)cc1 (stereo not given)	ELG1 repair inh 16µM
CCN1CCCC1Cn1c(-c2ccccc2)nc2c(N3CCOCC3)nc(C)nc21 (stereo not given)	none (no result: Rango complex inh, ELG1 repair inh, Rango release inh, Tb PFK inh, PGK inhibitor)
Cc1cccc(C(=O)NC2CC3CCCC(C2)N3S(=O)(=O)c2ccccc2)c1 (stereo not given)	ELG1 repair inh 23µM
O=C1C(=O)c2ccccc2C([O-])=C1[n+]1ccccc1	ELG1 repair inh 18µM
O=C(Cn1ncn2c(cc3sccc32)c1=O)NC1CCCC1	none (no result: PKM2 act)
CC[n+]1ccccc1/C=C/c1ccc(N(C)C)cc1	Rango complex inh 8.2µM, ELG1 repair inh inconclusive, Rango release inh inconclusive

Screens (PubChem)
